# From patent US20240102994A1, “Method to Evaluate the Capability of Compounds on the Trapping of Proteins” (Eisbach Bio GmbH, priority 2020, published 2024)
# By UniProt entry, the sequences of proteins in these tests, tags left out.
# UniProt P09874, whole entry: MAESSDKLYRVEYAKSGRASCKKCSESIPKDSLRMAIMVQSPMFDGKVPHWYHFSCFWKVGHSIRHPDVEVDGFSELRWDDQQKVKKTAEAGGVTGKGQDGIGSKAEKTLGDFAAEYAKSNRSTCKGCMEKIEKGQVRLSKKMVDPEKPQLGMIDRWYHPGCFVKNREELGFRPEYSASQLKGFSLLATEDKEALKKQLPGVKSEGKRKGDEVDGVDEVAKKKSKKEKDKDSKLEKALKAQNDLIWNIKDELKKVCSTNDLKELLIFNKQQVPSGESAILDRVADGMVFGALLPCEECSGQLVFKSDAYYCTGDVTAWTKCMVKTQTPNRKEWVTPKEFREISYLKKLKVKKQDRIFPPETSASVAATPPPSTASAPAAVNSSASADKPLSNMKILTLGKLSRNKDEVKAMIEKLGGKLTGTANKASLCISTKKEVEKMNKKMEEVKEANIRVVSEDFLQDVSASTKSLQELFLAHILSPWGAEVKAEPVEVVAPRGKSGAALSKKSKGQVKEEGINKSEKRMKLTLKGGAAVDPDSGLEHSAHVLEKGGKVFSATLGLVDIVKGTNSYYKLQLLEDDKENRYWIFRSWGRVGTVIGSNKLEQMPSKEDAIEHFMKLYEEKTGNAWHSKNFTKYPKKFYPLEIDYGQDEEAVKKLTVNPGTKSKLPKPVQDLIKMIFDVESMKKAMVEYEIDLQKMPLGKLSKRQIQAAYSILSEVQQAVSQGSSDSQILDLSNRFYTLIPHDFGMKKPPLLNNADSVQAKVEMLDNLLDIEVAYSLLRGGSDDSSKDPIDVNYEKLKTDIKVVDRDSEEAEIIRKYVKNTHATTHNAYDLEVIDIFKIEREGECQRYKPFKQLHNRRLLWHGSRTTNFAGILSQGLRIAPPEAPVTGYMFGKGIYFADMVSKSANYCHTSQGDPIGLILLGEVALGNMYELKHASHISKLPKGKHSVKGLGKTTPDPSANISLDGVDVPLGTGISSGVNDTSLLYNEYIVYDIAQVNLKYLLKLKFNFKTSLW
# “Also recorded” adds a separate entry of the source.
# Molecular target: T1, PARP1-GFP (Homo sapiens, UniProt P09874)
# T1 construct: expressed in transfected cells; host or cells: U2OS
# Assay: Live-cell protein trapping assay: PARP1-GFP at laser micro-irradiation sites
# Type: cell-based
# Conditions: wild-type U2OS cells, 100 nM for 1 h, 355 nm laser, 30 minutes, compared to DMSO
# Description: The disclosed method is used to analyze protein trapping induced by compounds. Live-cell imaging allows monitoring of the accumulation of at least one protein, e.g. which is detectably labelled, e.g. fluorophore-tagged, at the induced DNA lesions over time. Time0 (t0) hereby describes the timepoint before induction of DNA damage by irradiation. Thus, the relative enrichment of the at least one protein at DNA lesions within the imaged time frame (from t0 to tEND) can be quantified. This allows to the analysis of the recruitment and retention (protein trapping) kinetics of the at least one protein, e.g. which is detectably labelled, e.g. fluorophore-tagged, at DNA lesions. Suitably, as a first step the accumulation and/or residence time of a protein, e.g. which is detectably labelled, e.g. fluorophore-tagged, is measured in the absence of a test compound (control). The optimal imaging time is hereby determined by the time in which the majority of the protein has released from the damage site, indicated by the decrease of signal, e.g. fluorescent signal, at the DNA lesion (see FIG. 2A). Subsequently, the accumulation and/or residence time of the protein, e.g. which is detectably labelled, e.g. fluorophore-tagged, may be determined in the presence of at least one test compound. […]
smiles,measurement,value
Cn1ncnc1[C@H]1c2n[nH]c(=O)c3cc(F)cc(c23)N[C@@H]1c1ccc(F)cc1 [talazoparib],retention of PARP1 at DNA damage sites (PARP1-trapping),enhanced retention; also recorded: most PARP1 retention
